{"source": "IntAct's records for PubMed 31189953", "parents": {"B1": {"name": "Serine/threonine-protein kinase Nek7 (Homo sapiens), Q8TDX7-1 (parent)", "chain": "MDEQSQGMQGPPVPQFQPQKALRPDMGYNTLANFRIEKKIGRGQFSEVYRAACLLDGVPVALKKVQIFDLMDAKARADCIKEIDLLKQLNHPNVIKYYASFIEDNELNIVLELADAGDLSRMIKHFKKQKRLIPERTVWKYFVQLCSALEHMHSRRVMHRDIKPANVFITATGVVKLGDLGLGRFFSSKTTAAHSLVGTPYYMSPERIHENGYNFKSDIWSLGCLLYEMAALQSPFYGDKMNLYSLCKKIEQCDYPPLPSDHYSEELRQLVNMCINPDPEKRPDVTYVYDVAKRMHACTASS"}}}
{"variants_of": "B1", "conditions": "with q96p20-1 NLRP3, Q96P20-1"}
{"variant": "R121E", "effect of a mutation on the interaction": "decreasing interaction"}
{"variant": "K128E", "effect of a mutation on the interaction": "with no effect"}
{"variant": "Q129R", "effect of a mutation on the interaction": "decreasing interaction"}
{"variant": "R131E", "effect of a mutation on the interaction": "decreasing interaction"}
{"variant": "R136E", "effect of a mutation on the interaction": "decreasing interaction"}
{"variant": "S260A;D261R", "effect of a mutation on the interaction": "decreasing interaction"}
{"variant": "S260A;D261R;E265R", "effect of a mutation on the interaction": "decreasing interaction"}
{"variant": "E280R", "effect of a mutation on the interaction": "with no effect"}
{"variant": "E280V", "effect of a mutation on the interaction": "with no effect"}
{"variant": "D290R", "effect of a mutation on the interaction": "decreasing interaction"}
{"variant": "R294E", "effect of a mutation on the interaction": "decreasing interaction"}
